# AlphaSeq binding of Ab-95 light chain variants to a spike HR2 peptide

Antigen: PDVDLGDISGINAS, a 14-residue peptide of the SARS-CoV-2 spike HR2 region.

Each scFv is VH, three GGGGS repeats, VL, as in the parent Ab-95, and differs from it in the CDRs of the light chain only.
VH: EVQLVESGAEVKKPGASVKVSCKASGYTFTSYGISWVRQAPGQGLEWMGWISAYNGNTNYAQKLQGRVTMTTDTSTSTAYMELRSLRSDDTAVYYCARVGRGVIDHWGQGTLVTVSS
VL: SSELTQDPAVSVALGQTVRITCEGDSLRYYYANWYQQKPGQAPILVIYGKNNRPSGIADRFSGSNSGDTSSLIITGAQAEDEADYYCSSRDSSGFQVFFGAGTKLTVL

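The parent was found by panning a naive human phage display library on the peptide. The library (AAYL52) carries one to three amino acid substitutions per variant, with no insertions or deletions. AlphaSeq pools MATa yeast showing the antibodies with MATalpha yeast showing the peptide. The frequency of each diploid, read from paired DNA barcodes, reflects how well the two displayed proteins bind. A regression on co-assayed BCL2-family reference pairs converts the normalised counts of each replicate to an apparent Kd. There are three technical replicates.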

Changes read parent residue, position, new residue, counted from the first residue of the VL shown. All variants listed here change S89 of the VL, counted from its first residue. Scale: log10 of Kd in nM, estimated from mating counts; low values are strong binders. An entry "nd" has no value in the source: the pair was not observed among the diploids in that replicate. This suggests poor binding but is not conclusive.

For E23K/S89G/S92L, the assay gave 2.17, 2.25, 3.09. Variant S88P/S89T/D91W showed 5.00, nd, nd. Variant D25G/Y31R/S89C showed 2.66, 2.77, 2.38. Variant Y29A/Y31P/S89Y gave 2.35, 2.87, 1.97. Variant N33S/N52L/S89R gave 3.18, nd, 4.48. Variant E23S/S89W/R90V showed 2.87, 2.88, 2.65. With G24R/S89Y/D91C the result was 5.55, nd, nd. Variant S89W/R90L/Q96T gave 2.71, 2.66, 3.03. Variant Y29H/S89Y/F98C gave 4.43, 3.32, 3.61.

With N51M/S89W the result was nd, nd, nd. With L27R/S89E/V97Y the result was 3.50, nd, nd. With N51T/S89G/G94R the result was 3.39, 2.58, nd. For G49L/S88V/S89F, the assay gave nd, 5.58, nd. With Y29T/N33K/S89Y the result was nd, nd, nd. With G49H/P54A/S89Y the result was 3.31, 4.78, 3.15. Variant D25R/R53V/S89A showed 2.70, 2.60, 2.35. Variant Y29I/N52T/S89M gave nd, nd, nd. Variant P54C/S89L/V97L showed 3.12, 3.35, 3.04.

Variant E23N/S89T gave 2.26, 1.85, 1.64. Variant G49C/P54I/S89K gave nd, nd, nd. Variant E23K/S88G/S89K showed nd, 3.43, 3.76. With Y29I/S88P/S89E the result was 3.31, 4.52, 3.88. For G24S/Y29R/S89Y, the assay gave 3.44, 2.69, nd. With G24I/N33M/S89H the result was nd, nd, nd. For N51D/S89N/F95N, the assay gave 2.61, 2.26, 2.32. Variant G49S/S89Q showed nd, 4.13, 4.22. Variant E23T/Y31T/S89G showed 1.76, 1.77, 1.51.

With N51I/S89T/S93D the result was 3.95, nd, 3.18. Variant S89P/Q96H/V97M showed nd, nd, 4.22. Variant S55T/S89N/S92D showed nd, 3.92, nd. For S89M/S93K/G94L, the assay gave 3.39, nd, nd. With Y29V/N51A/S89F the result was 3.53, 5.12, nd. Variant A32W/S89T/G94A gave nd, nd, nd. Variant D25V/L27Q/S89W showed 2.84, 2.46, 3.09. For P54S/S89D/V97C, the assay gave 4.17, 5.41, nd. For D25R/R53P/S89H, the assay gave nd, 4.83, 4.01.

Variant G49C/S89F/Q96A showed nd, nd, nd.

Again, the first 3 entries without any signal:

{"changes": "N51M/S89W", "replicates, log10 nM": "nd, nd, nd"}
{"changes": "Y29T/N33K/S89Y", "replicates, log10 nM": "nd, nd, nd"}
{"changes": "Y29I/N52T/S89M", "replicates, log10 nM": "nd, nd, nd"}

Empty control strains, which show no peptide, gave a signal in 28% of pairings with library AAYL52; the median was 3.91 and 95% of these signals were weaker than 2.90. No background was subtracted. Parent in this assay: reference entry 2.31, copy in this library 2.25.

Data: MIT Lincoln Laboratory AlphaSeq set, Engelhart et al. 2022, doi:10.1038/s41597-022-01779-4, as distributed in FLAb.